Measurements taken from US8470816B2, “Nitrogen-containing heterocyclic compound and use thereof” (Takeda Pharmaceutical Company Limited, priority 2007, dated 2013).

Chains of the proteins cited; added tags and fusions are not shown.
UniProt P25103, whole entry, looked up: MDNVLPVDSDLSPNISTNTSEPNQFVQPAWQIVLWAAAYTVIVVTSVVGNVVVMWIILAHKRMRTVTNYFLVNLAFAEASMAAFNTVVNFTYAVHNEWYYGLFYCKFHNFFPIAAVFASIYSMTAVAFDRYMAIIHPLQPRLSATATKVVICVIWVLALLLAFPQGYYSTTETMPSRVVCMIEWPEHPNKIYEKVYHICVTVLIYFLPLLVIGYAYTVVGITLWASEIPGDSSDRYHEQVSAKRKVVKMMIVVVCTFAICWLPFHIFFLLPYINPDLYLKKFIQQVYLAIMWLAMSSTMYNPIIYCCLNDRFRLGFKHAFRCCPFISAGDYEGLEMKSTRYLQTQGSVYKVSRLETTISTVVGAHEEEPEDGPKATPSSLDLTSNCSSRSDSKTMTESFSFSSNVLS
UniProt P21452, whole entry, looked up: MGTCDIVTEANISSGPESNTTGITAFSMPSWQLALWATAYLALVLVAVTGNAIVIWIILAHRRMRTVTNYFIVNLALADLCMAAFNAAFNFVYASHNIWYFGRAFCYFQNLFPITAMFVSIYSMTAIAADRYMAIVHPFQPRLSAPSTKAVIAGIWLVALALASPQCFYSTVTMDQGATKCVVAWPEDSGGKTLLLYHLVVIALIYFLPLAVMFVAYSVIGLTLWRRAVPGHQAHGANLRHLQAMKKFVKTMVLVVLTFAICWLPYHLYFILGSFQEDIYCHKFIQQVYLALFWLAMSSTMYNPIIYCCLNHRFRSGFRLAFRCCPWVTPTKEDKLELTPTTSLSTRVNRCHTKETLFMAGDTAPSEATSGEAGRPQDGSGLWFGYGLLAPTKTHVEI

Legend:
human NK1 receptor = human NK1 receptor (Homo sapiens (Human), UniProt P25103); assay: Human NK1 receptor binding assay: radioligand (125I-Bolton-Hunter-SP) binding inhibition using receptor from human lymphoblast cells (IM-9); conditions: read-out: hNK1 IC50, IM-9 cell receptor
[1] = biological target: human NK2 (hNK2) receptor (Homo sapiens (Human), UniProt P21452); assay: Human NK2 receptor binding assay: radioligand ([125I]-NK-A) binding inhibition using membrane fraction of CHO cells expressing hNK2 receptor; conditions: read-out: hNK2 IC50, CHO cell membrane fraction

Compound | IC50 (human NK1 receptor) [nM] | IC50 [1] [nM]
CC(=O)N1CCC(C(=O)N2CC[C@@H](N(C)C(=O)c3ccc(Br)cn3)[C@H](c3ccc(Cl)c(Cl)c3)C2)CC1 | 520 | 0.82
CN(C(=O)c1ccc(Cl)cc1)[C@@H]1CCN(C(=O)C2CCN(C(=O)CO)CC2)C[C@H]1c1ccc(Cl)c(Cl)c1.O (hydrate or solvate) | 79 | –
CN(C(=O)c1ccc(C(F)(F)F)cc1)[C@@H]1CCN(C(=O)C2CCN(C(=O)CO)CC2)C[C@H]1c1ccc(Cl)c(Cl)c1.O (hydrate or solvate) | 140 | –
CN(C(=O)c1ccc(Br)cc1)[C@@H]1CCN(C(=O)C2CCN(C(=O)CO)CC2)C[C@H]1c1ccc(Cl)c(Cl)c1.O (hydrate or solvate) | 84 | 0.24
